Assay results reported in patent US20230021329A1, “NANOSTRUCTURED BINARY GEL COMPOSITION AND USE THEREOF” (Veri Nano Inc., priority 2019, published 2023).

Experiment: Release study of agents from the gel
Format: physicochemical
[1] = release from hydrogel composition #4, 10 h in PBS

Q: What does the source list for Bovine serum albumin [BSA]?
A: amount released [1]: 2.78 mg; percent release [1]: 2.2%; concentration in supernatant (release from hydrogel composition #4, 10 hours in PBS at room temperature): 111 µg/mL
